Compound activity: PubChem, Broad Institute
miR-122 sensor: miR-122 Renilla sensor signal increase in Huh7, primary screen, miR-122 inhibitor project, cell-based, single point, plate reader; activation (reporter increase), % at 12.5 µM; Huh7 miR-122 Renilla luciferase sensor, 48 h; neutral wells = 0, positive control = 100; 340,000 tested, 0.3% active; AID 602342, 2012;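 active = mean replicate activation score at least 90 and every replicate individually at or above 90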;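 note: higher luciferase means less miR-122 activity so hits act as miR-122 inhibitors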
PGC1a acetyl inh: inhibitors of PGC1a acetylation signal, primary screen, cell-based, U2OS, AlphaScreen, inhibitor mode; 350,000 tested, 0.17% active; AlphaScreen anti-acetyl-lysine; with virally co-expressed GCN5 acetyltransferase; inhibition, % at 15.6 µM;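 active = every replicate shows inhibition of at least 40%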;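 note: 0% = neutral control wells and 100% = positive control wells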
FN deposit inh: inhibitors of fibronectin matrix deposition, primary screen, AH1F cells, Alexa488-fibronectin fluorescence, plate reader; AH1F fibroblasts, overnight; inhibition, % at 12.6 µM; 350,000 tested, 0.086% active; AID 743247, 2014;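 active = mean inhibition across replicates of 30% or more, regardless of how many single replicates reach that level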;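 note: positive control wells lacked labelled fibronectin entirely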
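Assay system: AH1F fibroblasts / Quantity: 10000 cells per well / Medium: DMEM plus 2% serum, read in PBS / Reagent: labelled fibronectin 24 nM / Dosing: single dose, pinned / Times: 1 h cell attachment, overnight exposure to compound and label / Signal: fluorescence, ex 485 nm, em 525 nm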
Cneo AK release: Cryptococcus neoformans cell lysis inducers, primary screen, AK release luminescence, single concentration | lysis activity, % at 15 µM | 360,000 tested, 0.2% active | C. neoformans lysis, adenylate kinase release luminescence, 4 h; normalised: neutral wells 0, clomiphene wells 100 | AID 651654, 2012;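 active = mean lysis activity across replicates of at least 80%, whatever share of replicates individually reach that level; inactive = mean lysis activity below 80%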
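Assay system: C. neoformans cells. Amount: yeast cell density of 5 × 10^6 cells/mL. Technique: AK luminescence. Buffer or medium: YPD. Times: static 4 h at 37 °C with compound, 1 h detection. Dosing: single-point compound dose. Read-out: lysis from increased AK signal.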
HIV Env fusion: inhibitors of HIV-1 Env-driven cell-cell fusion, primary screen, HeLa-JRFL effector, CEM21 target cells, luciferase | inhibition, % at 12.3 µM | 360,000 tested, 1.1% active;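 active = mean replicate inhibition score of at least 50 and every replicate individually at or above 50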;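 note: 0% = plate neutral controls and 100% = maraviroc near 300 nM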
Yeast UUG start: modulators of yeast start codon fidelity, primary screen, whole organism, S. cerevisiae, single point, plate reader; S. cerevisiae UUG-firefly luciferase reporter, luminescence/redox ratio; activity score, % at 18.7 µM; 0.13% of 350,000 active; AID 602363, 2012;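 active = replicate mean at a twofold rise or more, about +100% in these data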;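 also: firefly luciferase made from a UUG start codon reports start codon fidelity; reporter light over untreated wells divided by growth signal over untreated wells; some hits fall short of that in this replicate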
* = called active by the depositor; · = not tested or not shown; [ ] = remark or other dose. A selection: hits, their analogues and other compounds. The true share with any hit is near 1.5%.

SMILES	miR-122 sensor	PGC1a acetyl inh	FN deposit inh	Cneo AK release	HIV Env fusion	Yeast UUG start
COc1ccc2nc(Nc3nc(CSc4nc5ccccc5[nH]4)cc(=O)[nH]3)nc(C)c2c1	-4	-4	-10	3	86*	-17
O=C(CSc1nc2c(cnn2-c2ccc(F)cc2)c(=O)[nH]1)N1N=C(c2cccs2)CC1c1ccc(F)cc1 (stereo not given)	3	21	-1	-1	-15	-18
CCOC(=O)C1C(c2cccc(F)c2)NC(=S)NC1(O)C(F)(F)F (stereo not given)	-5	-3	1	2	18	-19
CC1CN(C(=O)c2cc(S(=O)(=O)N(C)c3ccc(F)cc3)ccc2Cl)CC(C)O1 (stereo not given)	-7	4	·	-2	61*	5
CC1CN(C(=O)c2cc(S(=O)(=O)N3CCCC3)ccc2Cl)CC(C)O1 (stereo not given)	·	·	·	-7	2	4
CCOC(=O)[C@H]1[C@H]2COc3ccc(Br)cc3[C@@H]2N2C(=O)N(c3ccccc3)C(=O)[C@@]12C	0	-6	1	0	-31	-8
CCOC(=O)[C@@H]1[C@H]2COc3ccc(Br)cc3[C@@H]2N2C(=O)N(c3ccccc3)C(=O)[C@@]12C	·	·	5	-1	87*	-3
CCOC(=O)[C@H]1[C@H]2COc3ccc(Br)cc3[C@@H]2N2C(=O)c3c(C)cc(C)cc3NC(=O)[C@@]12C	-1	-15	15	-1	67*	6
COc1ccc(/C=N/NC(=O)c2ccoc2C)cc1COc1c(C)cccc1C	12	-2	-2	0	76*	-14
CCc1ccc(NC(=O)CSc2nc3n[nH]c(C)c3c(=N)n2-c2cccc(OC)c2)cc1	·	-11	-2	-1	59*	-9
CN(C)CC(C(=O)c1ccccc1)c1ccccc1 (stereo not given)	44	139*	·	·	·	·
COC(=O)[C@]12C[C@H](CC(=O)NCc3cccc4ccccc34)C(=O)N(Cc3ccc4c(c3)OCO4)C1=C[C@H](C(C)(C)C)O[C@@H]2C	·	·	0	·	56*	·
COC(=O)[C@]12C[C@H](CC(=O)NCc3ccc(OC)c(OC)c3)C(=O)N(Cc3ccc4c(c3)OCO4)C1=C[C@H](C(C)(C)C)O[C@@H]2C	·	·	-4	·	39	·
CCCCOCCCNC(=O)C[C@H]1C[C@@]2(C(=O)OC)C(=C[C@H](C(C)(C)C)O[C@@H]2C)N(Cc2ccc3c(c2)OCO3)C1=O	·	·	-2	·	74*	·
COc1ccc(CNC(=O)Nc2ccccc2)cc1	-11	3	3	-5	-44	-20
COc1ccccc1-c1cccc(-c2nc(C(=O)N3CCCCC3)cc3c2[C@H](CCO)N(S(=O)C(C)(C)C)C3)c1 (stereo not given in full)	3	-4	-16	9	-10	8
CO[C@H]1CC[C@@H]2CCOc3c(C#N)cccc3C(=O)N(C)C[C@H](OC)[C@@H](C)C(=O)N(C)C[C@@H]1O2	·	·	4	86*	0[16.7 µM]	·
CO[C@@H]1CC[C@H]2CCOc3c(C#N)cccc3C(=O)N(C)C[C@H](C)C(=O)N(C)C[C@H]1O2	·	7	-2	62	-11[16.7 µM]	·
CO[C@H]1CC[C@H]2CCOc3c(C#N)cccc3C(=O)N(C)C[C@@H](C)C(=O)N(C)C[C@H]1O2	·	-10	-6	88*	-64[16.7 µM]	·
O=C(Nc1cccc(F)c1)c1ccc2c(c1)OCO2	-4	10	·	-3	·	-20
C#CCNC(=O)C1=C[C@H](C(C)(C)C)C[C@H](OCc2ccc(CO)cc2)O1	-8	3	6	0	-1	-12
CC(C)(C)[C@@H]1C=C(C(=O)Nc2ccccc2)O[C@H](OCc2ccc(CO)cc2)C1	0	9	0	0	97*	-2
COC(=O)c1ccc(CSc2nnc(NC(=O)c3cc4c(s3)CCCC4)s2)cc1	-1	-8	·	·	·	·
CC1CCc2sc(C(=O)Nc3nnc(SCc4ccc(F)cc4)s3)cc2C1 (stereo not given)	-3	94*	·	·	·	·
CCOC(=O)CSc1ncnc2c1cnn2-c1ccc(C)cc1C	·	6	1	·	10	·

Next part
SMILES	miR-122 sensor	PGC1a acetyl inh	FN deposit inh	Cneo AK release	HIV Env fusion	Yeast UUG start
CCOc1ccc(N2CC(C(=O)Nc3ccc(S(=O)(=O)NCC4CCCO4)cc3)CC2=O)cc1 (stereo not given)	3	56*	-1	1	6	6
COc1ccc(OC)c(-c2cc(C3CCN(c4cc(Cl)nc(N)n4)CC3)[nH]n2)c1	-46	11	1	0	63*	20
COc1ccc(-c2cc(C3CCN(c4cc(Cl)nc(N)n4)CC3)[nH]n2)cc1	-23	19	·	1	94*	-19
COc1ccc(OC)c(-c2cc(C3CCN(c4ncccc4[N+](=O)[O-])CC3)[nH]n2)c1	-11	-25	9	-2	3	-20
Nc1nc(Cl)cc(N2CCC(c3cc(-c4ccc(Cl)cc4)n[nH]3)CC2)n1	1	7	·	38	·	-28
O=C(COC(=O)c1cc(=O)[nH]c(=O)[nH]1)Nc1cccc(S(=O)(=O)N2CCOCC2)c1	·	9	-1	·	4	·
Cc1ccc(C(=O)Nc2nc3ccccc3[nH]2)cc1	53	3	5	-1	-77	-86
C[C@H]1CN([C@@H](C)CO)C(=O)c2cccc(NC(=O)C3CCCCC3)c2O[C@H]1CN(C)S(C)(=O)=O	12[16.7 µM]	·	-12	6	62*[16.7 µM]	6
C[C@@H]1CN([C@@H](C)CO)C(=O)c2cccc(NC(=O)C3CCCCC3)c2O[C@H]1CN(C)CC1CCCCC1	1[16.7 µM]	6	·	1	63*[16.7 µM]	3
C[C@H](CO)N1C[C@H](C)[C@H](CN(C)CC2CCCCC2)Oc2c(NS(C)(=O)=O)cccc2C1=O	-2[16.7 µM]	1	·	91*	-27[16.7 µM]	13
C[C@H](CO)N1C[C@H](C)[C@@H](CN(C)S(C)(=O)=O)Oc2c(NC(=O)C3CCCCC3)cccc2C1=O	6[16.7 µM]	-8	-2	-6	21[16.7 µM]	-11
C[C@@H]1CN([C@H](C)CO)C(=O)c2cccc(NC(=O)C3CC3)c2O[C@@H]1CN(C)CC1CC1	-10[16.7 µM]	3	·	-1	·	-8
C[C@H](CO)N1C[C@H](C)[C@@H](CN(C)CC2CC2)Oc2c(NC(=O)C3CC3)cccc2C1=O	149*[16.7 µM]	-2	6	-1	44	22
CC1CCC(NC(=O)COC(=O)CSc2ccc(C(N)=O)cc2[N+](=O)[O-])CC1 (stereo not given)	·	·	2	·	-1	·

Five records picked at random from those above:
SMILES	miR-122 sensor	PGC1a acetyl inh	FN deposit inh	Cneo AK release	HIV Env fusion	Yeast UUG start
C[C@H](CO)N1C[C@H](C)[C@H](CN(C)CC2CCCCC2)Oc2c(NS(C)(=O)=O)cccc2C1=O	-2[16.7 µM]	1	·	91*	-27[16.7 µM]	13
C[C@@H]1CN([C@H](C)CO)C(=O)c2cccc(NC(=O)C3CC3)c2O[C@@H]1CN(C)CC1CC1	-10[16.7 µM]	3	·	-1	·	-8
CCOc1ccc(N2CC(C(=O)Nc3ccc(S(=O)(=O)NCC4CCCO4)cc3)CC2=O)cc1 (stereo not given)	3	56*	-1	1	6	6
C[C@@H]1CN([C@@H](C)CO)C(=O)c2cccc(NC(=O)C3CCCCC3)c2O[C@H]1CN(C)CC1CCCCC1	1[16.7 µM]	6	·	1	63*[16.7 µM]	3
C[C@H]1CN([C@@H](C)CO)C(=O)c2cccc(NC(=O)C3CCCCC3)c2O[C@H]1CN(C)S(C)(=O)=O	12[16.7 µM]	·	-12	6	62*[16.7 µM]	6
